One assay concerns DOHH-2. The assay can be described thus: Antitumor activity against human DOHH-2 cells xenografted in mouse at 3 mg/kg, po administered for 17 days. It counts as functional, organism-based. Conditions: time 17.0 day.
Assay [1] addresses Serine/threonine-protein kinase pim-2 (Homo sapiens) (UniProt Q9P1W9). The assay can be described thus: Inhibition of PIM2 (unknown origin) at 1 uM relative to control.
Assay [2] concerns the target Serine/threonine-protein kinase pim-1 (Homo sapiens) (UniProt P11309). The assay can be described thus: Inhibition of PIM1 (unknown origin) at 1 uM relative to control.
Assay [3] concerns the target Dual specificity mitogen-activated protein kinase kinase 1 (Homo sapiens) (UniProt Q02750). The experiment in a line: Inhibition of MEK1 (unknown origin) at 1 uM relative to control.
Assay [4] concerns the target Mitogen-activated protein kinase; ERK1/ERK2 (Homo sapiens) (UniProt P27361+P28482). The assay can be described thus: Inhibition of ERK1/2 phosphorylation in human A549 cells at 1.25 to 5 uM incubated for 24 hrs by Western blot analysis. It is filed as cell-based. Conditions: dose 1.25-5 µM. (A western blot detects proteins with antibodies after separation by electrophoresis.)

Protein sequences, listed by entry. Tags and fused reporters are not part of them. Lines headed by an entry give the natural chain unless they say otherwise; changes in a name come on top.
UniProt Q9P1W9: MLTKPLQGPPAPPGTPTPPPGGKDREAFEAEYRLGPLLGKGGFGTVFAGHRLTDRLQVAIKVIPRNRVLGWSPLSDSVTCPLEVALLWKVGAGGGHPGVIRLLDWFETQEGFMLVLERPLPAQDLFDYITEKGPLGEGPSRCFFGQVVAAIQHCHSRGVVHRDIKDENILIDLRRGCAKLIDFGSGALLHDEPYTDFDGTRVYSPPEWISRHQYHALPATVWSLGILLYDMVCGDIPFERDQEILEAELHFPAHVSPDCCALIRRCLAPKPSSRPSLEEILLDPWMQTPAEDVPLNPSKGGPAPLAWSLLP
UniProt P11309, whole entry, looked up: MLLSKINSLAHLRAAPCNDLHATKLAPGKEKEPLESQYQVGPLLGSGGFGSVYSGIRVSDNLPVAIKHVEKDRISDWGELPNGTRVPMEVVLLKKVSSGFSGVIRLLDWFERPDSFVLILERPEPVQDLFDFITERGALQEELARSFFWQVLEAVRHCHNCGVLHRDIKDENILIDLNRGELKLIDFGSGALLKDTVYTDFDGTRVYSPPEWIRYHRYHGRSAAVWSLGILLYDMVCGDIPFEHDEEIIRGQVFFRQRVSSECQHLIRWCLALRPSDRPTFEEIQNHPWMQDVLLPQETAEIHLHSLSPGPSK
UniProt P27361, whole entry, looked up: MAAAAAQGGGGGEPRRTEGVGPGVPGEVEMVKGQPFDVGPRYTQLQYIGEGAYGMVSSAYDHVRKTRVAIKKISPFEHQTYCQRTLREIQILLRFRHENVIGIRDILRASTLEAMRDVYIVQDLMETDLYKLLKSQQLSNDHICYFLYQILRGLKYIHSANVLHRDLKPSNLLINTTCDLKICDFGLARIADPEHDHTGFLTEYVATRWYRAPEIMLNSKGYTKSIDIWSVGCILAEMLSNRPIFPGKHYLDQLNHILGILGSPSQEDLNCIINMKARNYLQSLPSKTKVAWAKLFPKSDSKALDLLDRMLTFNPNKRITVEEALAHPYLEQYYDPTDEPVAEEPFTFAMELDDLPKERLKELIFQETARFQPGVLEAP
UniProt P28482, whole entry, looked up: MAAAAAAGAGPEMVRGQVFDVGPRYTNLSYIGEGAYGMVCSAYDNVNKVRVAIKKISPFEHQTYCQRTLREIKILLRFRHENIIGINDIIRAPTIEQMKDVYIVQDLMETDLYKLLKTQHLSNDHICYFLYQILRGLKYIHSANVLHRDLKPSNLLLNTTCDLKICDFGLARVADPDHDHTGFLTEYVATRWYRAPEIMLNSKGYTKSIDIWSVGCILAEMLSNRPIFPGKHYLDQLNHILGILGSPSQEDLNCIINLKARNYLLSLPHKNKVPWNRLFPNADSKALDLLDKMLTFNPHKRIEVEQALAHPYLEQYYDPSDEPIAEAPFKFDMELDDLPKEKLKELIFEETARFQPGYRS
UniProt P45983: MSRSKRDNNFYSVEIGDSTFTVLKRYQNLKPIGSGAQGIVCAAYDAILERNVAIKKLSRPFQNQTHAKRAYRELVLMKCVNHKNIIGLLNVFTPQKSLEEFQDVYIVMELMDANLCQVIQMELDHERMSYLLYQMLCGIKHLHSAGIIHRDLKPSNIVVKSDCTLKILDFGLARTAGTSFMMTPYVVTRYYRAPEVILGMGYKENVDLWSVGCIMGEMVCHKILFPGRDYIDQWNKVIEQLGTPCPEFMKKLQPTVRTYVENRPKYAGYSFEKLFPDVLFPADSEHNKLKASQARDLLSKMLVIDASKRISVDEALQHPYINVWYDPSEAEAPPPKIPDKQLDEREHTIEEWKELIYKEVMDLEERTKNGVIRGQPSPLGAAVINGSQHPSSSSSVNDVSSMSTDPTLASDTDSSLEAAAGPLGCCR
UniProt Q13541: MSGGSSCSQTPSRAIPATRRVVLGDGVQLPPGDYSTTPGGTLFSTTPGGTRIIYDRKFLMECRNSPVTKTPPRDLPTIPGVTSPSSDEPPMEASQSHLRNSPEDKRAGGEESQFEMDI

Assay [5] has as its target Mitogen-activated protein kinase 8 (Homo sapiens) (UniProt P45983). The assay can be described thus: Inhibition of JNK1 (unknown origin) at 1 uM relative to control.
In assay [6] the target is Mitogen-activated protein kinase 9 (Homo sapiens) (UniProt P45984). The assay can be described thus: Inhibition of JNK2 (unknown origin) at 1 uM relative to control.
The target of assay [7] is Eukaryotic translation initiation factor 4E-binding protein 1 (Homo sapiens) (UniProt Q13541). The assay can be described thus: Inhibition of 4EBP1 phosphorylation in human A549 cells incubated for 24 hrs by Western blot analysis. It counts as cell-based. Conditions: dose 1.25-5 µM.
For assay [8] the target is unchanged. The experiment in a line: Inhibition of 4EBP1 phosphorylation in human A549 cells at 5 uM incubated for 24 hrs by Western blot analysis. It is filed as cell-based.

Activity calls are given as the source filed them. The calls are words filed in the database; no cut-off is given here.

On to `C=CC(=O)N1CCC[C@@H](n2nc(-c3ccc(Oc4ccccc4)cc3)c3c(N)ncnc32)C1`, for which the outcome in the assay with DOHH-2 was Active.
By inhibition is commonly meant how much of the control response was suppressed. For `O=C(c1ccc(-c2ccc3ncc(-c4cc5ccccc5o4)n3n2)cc1)N1CCC(N2CCCCC2)CC1`, the inhibition was 61.4% in assay [1]; 61.4% in [2]; 9.97% in assay [3]; 61.4% in assay [5]; 61.4% in [6]; “Dose-Dependent Effect” in [7]. For the same compound, the inhibition entry in assay [4] was “Active”.
With `N[C@H]1CCCN(C(=O)c2ccc(-c3ccc4ncc(-c5cc6ccccc6o5)n4n3)cc2)C1`, the inhibition in [1] came out at 61.4%; in assay [2], 61.4%; in assay [3], 13%; in [5], 61.4%; in [6], 61.4%. Moreover, the inhibition entry in [4] was “Active”.
As for `Cc1cc(Nc2cc(N)ncn2)c(=O)n2c1C(=O)NC21CCCCC1` [TOMIVOSERTIB], the inhibition result in assay [8] is “inactive”.

For the origin of these results see ChEMBL document CHEMBL5518245, “Development of an Imidazopyridazine-Based MNK1/2 Inhibitor for the Treatment of Lymphoma” (J Med Chem, 2024).
